This experiment deals with Orexin/Hypocretin receptor type 1 (Homo sapiens, UniProt O43613). The experiment can be described thus: Displacement of 3H-SB-674042 from human Ox1R expressed in CHO cell membranes by liquid scintillation counting method. Also on record: species or system Membrane. On the technique in general: Loss of bound radioactivity is the signal in a displacement assay; it reports binding, not function.

Chains of the proteins cited; added tags and fusions are not shown.
UniProt O43613, whole entry: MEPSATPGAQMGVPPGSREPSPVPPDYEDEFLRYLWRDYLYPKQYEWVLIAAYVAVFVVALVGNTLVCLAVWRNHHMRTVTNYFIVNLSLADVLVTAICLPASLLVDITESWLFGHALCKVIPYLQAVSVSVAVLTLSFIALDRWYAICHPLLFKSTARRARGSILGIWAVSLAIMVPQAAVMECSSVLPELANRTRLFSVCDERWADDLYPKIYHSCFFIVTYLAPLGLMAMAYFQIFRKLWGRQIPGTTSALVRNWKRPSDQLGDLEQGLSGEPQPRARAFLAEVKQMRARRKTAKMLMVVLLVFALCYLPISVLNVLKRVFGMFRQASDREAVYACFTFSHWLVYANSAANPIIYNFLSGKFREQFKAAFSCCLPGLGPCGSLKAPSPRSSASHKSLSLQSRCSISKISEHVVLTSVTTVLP

The term Ki denotes the dissociation constant of the complex between target and ligand, obtained from inhibition or displacement. Higher therefore signals a looser hold on the target.

In turn, `Cc1ccc(-n2nccn2)c(C(=O)N2CCN(c3nc4cc(Cl)ccc4o3)CC[C@H]2C)c1` [SUVOREXANT] had a Ki of 0.676 nM.

The values above are taken from ChEMBL document CHEMBL5625262, “Discovery and first-time disclosure of CVN766, an exquisitely selective orexin 1 receptor antagonist” (Bioorg Med Chem Lett, 2024).
